Source: patent publication EP1685120B1, “COLOURING HYDROSOLUBLE YELLOW PREPARATION DERIVED FROM DIHYDROCHALCONES” (INSTITUT NATIONAL DE LA RECHERCHE AGRONOMIQUE, priority 2003, dated 2005)
Where “and” joins values, the source holds several entries; their conditions need not be identical. Equal entries are not always repeated.

Experiments:
cellules TC-7 = experiment: Cytotoxicity test, cell viability by neutral red method; format: cell-based; details: 2 h incubation, 540 nm, single replicates, listed as POP purifié
Method: Cellules TC-7 (sous clone de caco-2) cultivées sur nacelles (membrane en polyéthylène téréphtalate), utilisées à 21 jours de confluence, fournie par Bioprédic International
Emploi des cellules au passage 21.
Produit "POP" purifié (composé de formule I-b-1), obtenu tel que décrit précédemment (paragraphe D) : solubilisé directement dans le tampon apical, testé à 20, 100, 200, 1000 et 2000 µM pour le test de cytotoxicité. Pas de solvant utilisé pour la solubilisation des produits à l'essai.
Système réactionnel : cultures de cellules TC-7 incubées en présence des produits à l'essai aux différentes concentrations citées ci-dessus.
Temps d'incubation : 2 heures. [drawing 6] ↑ : incubation des produits à l'essai ? : évaluation des effets Replicate : 5 par concentrations. Température d'incubation : 37°C. Autres conditions : atmosphère humide contenant 5 % de CO2.
Témoin : correspondant aux cellules incubées en absence de produit à l'essai [drawing 8] Replicate : 10
Viabilité cellulaire mesurée selon la méthode du rouge neutre après incubation avec les produits à l'essai : • incubation en présence de rouge neutre pendant 3 heures • lyse des cellules et lecture de la densité optique avec un spectrophotomètre à 540 nm (la densité optique du rouge neutre est proportionnelle au nombre de cellules vivantes).
Expression des résultats : en unités arbitraires de D.O.(densité optique) par échantillon et en pourcentage de variation par rapport au groupe témoin.

[1] = Colorimetric parameters CIE L*a*b* (Minolta CM-3600d spectrophotometer) in Mc Ilvaine buffer; format: physicochemical; details: tampon de Mc Ilvaine
Text: Les paramètres de coloration du colorant par rapport à de l'eau distillée (référence) ont été mesurés en solution dans un tampon de M^c Ilvaine (citrate-phosphate) à différents pH (2,2 à 8) et ce, pour plusieurs concentrations.
Les mesures ont été réalisées à l'aide d'un spectrophotomètre Minolta CM-3600d (©1998 Minolta Co., Ltd. Japon) avec la plaque de calibration (Minolta n° 13171008). Le spectrophotomètre équipé d'un logiciel de retraitement SpectraMagic V 3.60G (Cyberchrome Inc Minolta Co. Ltd), a été paramétré pour utiliser l'espace colorimétrique CIE L*a*b (Figure 2), avec l'illuminant D65-10° (D65-A-F2), et l'observateur moyen normalisé 10° CIE 1964 (sensibilité d'un oeil moyen). A partir des valeurs a* et b* nous avons calculé les coordonnées polaires C* = sqrt(((a*))^2 + ((b*))^2) et h = tan g^-1 ((a*)/(b*)) × (180)/(Pi) [formula] Dans la suite du texte nous exploiterons principalement ces coordonnées polaires C* et h, car elles ont chacune une signification colorimétrique : C* est la distance au centre de l'espace et correspond à la saturation de la couleur alors que h est un angle (exprimé ici en degré) qui définit la teinte. A titre indicatif pour la couleur rouge la teinte se situe au voisinage de 0°, pour le jaune environ 90°, pour le vert 180° et pour le bleu 270°. La valeur L* est utilisée telle quelle et exprime la clarté.

**Q.** With “acide 3-(4'-hydroxy-2'-glucosyl-4,5-dioxo-3,6-dihydro-2H-dibenzofuran-2-yl)-propionique [I-b-1]” as the substance, how does the DO (cellules TC-7; 20 µM) read?
**A.** The DO was 0,441 and 0,477 and 0,501 and 0,517 and 0,510.

**Q.** What about the DO (cellules TC-7; 100 µM) of the same substance?
**A.** Its DO is 0,432 and 0,519 and 0,517 and 0,533 and 0,518.

**Q.** What about the DO (cellules TC-7; 200 µM) of the same substance?
**A.** The DO was 0,407 and 0,460 and 0,480 and 0,495 (2×).

**Q.** And the DO (cellules TC-7; 1000 µM)?
**A.** Its DO is 0,438 and 0,521 and 0,518 and 0,535 and 0,509.

**Q.** What about the DO (cellules TC-7; 2000 µM) of the same substance?
**A.** The DO was 0,442 and 0,436 and 0,458 and 0,476 and 0,429.

**Q.** And the “C* : saturation” value ([1]; 5 mg/L, pH 3)?
**A.** The value was 12,4.

**Q.** What about the h ([1]; 5 mg/L, pH 3) of the same substance?
**A.** The h was 111,7 degré.

**Q.** And the “C* : saturation” value ([1]; 10 mg/L, pH 3)?
**A.** The value was 24,3.

**Q.** And the h ([1]; 10 mg/L, pH 3)?
**A.** Its h is 110,4 degré.

**Q.** What about the “C* : saturation” value ([1]; 20 mg/L, pH 3) of the same substance?
**A.** The value was 43,7.

**Q.** What about the h ([1]; 20 mg/L, pH 3) of the same substance?
**A.** The h was 108,1 degré.

**Q.** And the “C* : saturation” value ([1]; 40 mg/L, pH 3)?
**A.** Its value is 69,4.

**Q.** What about the h ([1]; 40 mg/L, pH 3) of the same substance?
**A.** The h was 104,8 degré.

**Q.** And the “C* : saturation” value ([1]; 100 mg/L, pH 3)?
**A.** Its value is 97,6.

**Q.** What about the h ([1]; 100 mg/L, pH 3) of the same substance?
**A.** Its h is 100,5 degré.

**Q.** What about the “C* : saturation” value ([1]; pH 2,2, env. 20 mg/L) of the same substance?
**A.** Its value is 42,9.

**Q.** And the h ([1]; pH 2,2, env. 20 mg/L)?
**A.** Its h is 108,4 degré.

**Q.** And the “C* : saturation” value ([1]; pH 3, env. 20 mg/L)?
**A.** Its value is 43,2.

**Q.** What about the h ([1]; pH 3, env. 20 mg/L) of the same substance?
**A.** Its h is 108,1 degré.

**Q.** What about the “C* : saturation” value ([1]; pH 4, env. 20 mg/L) of the same substance?
**A.** The value was 44,3.

**Q.** And the h ([1]; pH 4, env. 20 mg/L)?
**A.** Its h is 107,3 degré.

**Q.** And the “C* : saturation” value ([1]; pH 5, env. 20 mg/L)?
**A.** Its value is 48,1.

**Q.** And the h ([1]; pH 5, env. 20 mg/L)?
**A.** The h was 103,8 degré.

**Q.** What about the “C* : saturation” value ([1]; pH 6, env. 20 mg/L) of the same substance?
**A.** The value was 57,7.

**Q.** What about the h ([1]; pH 6, env. 20 mg/L) of the same substance?
**A.** Its h is 90,1 degré.

**Q.** What about the “C* : saturation” value ([1]; pH 7, env. 20 mg/L) of the same substance?
**A.** The value was 73,2.

**Q.** What about the h ([1]; pH 7, env. 20 mg/L) of the same substance?
**A.** Its h is 77,2 degré.

**Q.** And the “C* : saturation” value ([1]; pH 8, env. 20 mg/L)?
**A.** The value was 74,8.

**Q.** And the h ([1]; pH 8, env. 20 mg/L)?
**A.** Its h is 74,9 degré.
